The target in one test is T1, Caspase-1 (Mus musculus) (UniProt P29452).
T1 sequence (whole entry): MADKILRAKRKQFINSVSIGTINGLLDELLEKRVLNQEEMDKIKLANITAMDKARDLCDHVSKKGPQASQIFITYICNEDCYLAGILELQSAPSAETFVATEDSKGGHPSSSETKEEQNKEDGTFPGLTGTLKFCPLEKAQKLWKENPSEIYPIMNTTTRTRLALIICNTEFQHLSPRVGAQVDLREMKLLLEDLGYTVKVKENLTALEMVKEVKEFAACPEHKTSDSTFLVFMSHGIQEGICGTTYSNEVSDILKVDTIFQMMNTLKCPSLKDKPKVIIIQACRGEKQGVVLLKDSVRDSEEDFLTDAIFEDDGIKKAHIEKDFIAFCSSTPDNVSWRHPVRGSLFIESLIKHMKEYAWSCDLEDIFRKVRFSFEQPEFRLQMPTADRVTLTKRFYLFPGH

By UniProt entry, the sequences of proteins in these tests, tags left out. Where a name states a change or a piece, a line headed by the entry shows the natural chain unless it says otherwise.
UniProt Q14790: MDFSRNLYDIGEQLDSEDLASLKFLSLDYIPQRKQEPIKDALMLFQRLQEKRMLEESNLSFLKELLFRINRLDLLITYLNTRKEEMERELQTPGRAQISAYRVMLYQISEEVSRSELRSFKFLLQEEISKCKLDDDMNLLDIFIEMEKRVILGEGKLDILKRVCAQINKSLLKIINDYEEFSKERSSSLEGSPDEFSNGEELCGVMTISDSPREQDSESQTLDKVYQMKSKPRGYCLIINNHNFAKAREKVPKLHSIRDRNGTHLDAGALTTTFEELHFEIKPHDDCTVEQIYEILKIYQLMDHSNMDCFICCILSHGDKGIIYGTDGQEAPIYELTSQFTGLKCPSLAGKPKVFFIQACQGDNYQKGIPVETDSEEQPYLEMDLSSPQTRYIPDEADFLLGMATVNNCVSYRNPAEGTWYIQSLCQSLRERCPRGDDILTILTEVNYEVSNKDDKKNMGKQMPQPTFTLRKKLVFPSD

The next test deals with Caspase-8 (Homo sapiens, UniProt Q14790).
The next test addresses T2, Caspase-6 (Homo sapiens) (UniProt P55212).
T2 sequence (whole entry): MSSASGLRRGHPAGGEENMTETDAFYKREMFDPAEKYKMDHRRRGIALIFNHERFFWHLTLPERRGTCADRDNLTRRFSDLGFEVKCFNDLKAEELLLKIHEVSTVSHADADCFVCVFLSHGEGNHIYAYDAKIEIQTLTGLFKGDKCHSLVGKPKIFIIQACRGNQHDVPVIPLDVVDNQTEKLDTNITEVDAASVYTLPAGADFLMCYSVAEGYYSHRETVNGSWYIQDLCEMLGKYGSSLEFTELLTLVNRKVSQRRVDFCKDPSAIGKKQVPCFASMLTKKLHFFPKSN

A further test has as its target T3, Caspase-3 (Homo sapiens) (UniProt P42574).
T3 sequence (whole entry): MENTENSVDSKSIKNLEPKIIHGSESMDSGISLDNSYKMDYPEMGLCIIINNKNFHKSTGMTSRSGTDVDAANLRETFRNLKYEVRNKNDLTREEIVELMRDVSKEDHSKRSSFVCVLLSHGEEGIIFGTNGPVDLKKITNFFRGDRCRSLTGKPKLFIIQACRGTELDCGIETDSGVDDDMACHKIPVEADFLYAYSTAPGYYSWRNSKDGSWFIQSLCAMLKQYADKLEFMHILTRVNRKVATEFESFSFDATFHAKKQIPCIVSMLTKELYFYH

As for `CC(C)[C@H](NC(=O)C(=O)Nc1ccc(I)cc1F)C(=O)N[C@@H](CC(=O)O)C(=O)COc1c(F)c(F)cc(F)c1F`, the k3/Ki at Caspase-1 (Mus musculus) is over 1e+07 M⁻¹ s⁻¹; on Caspase-8, 84000 M⁻¹ s⁻¹; at Caspase-6 (Homo sapiens) it was 133000 M⁻¹ s⁻¹; on Caspase-3 (Homo sapiens) it was 207000 M⁻¹ s⁻¹.
Taken in the same sequence, the figures for `CC(C)[C@H](NC(=O)C(=O)Nc1ccc2ccccc2c1)C(=O)N[C@@H](CC(=O)O)C(=O)COc1c(F)c(F)cc(F)c1F` were 625000 M⁻¹ s⁻¹, 589000 M⁻¹ s⁻¹, 484000 M⁻¹ s⁻¹ and 395000 M⁻¹ s⁻¹.
Taken in the same sequence, the figures for `CC(C)[C@H](NC(=O)C(=O)Nc1ccc2c(c1)CCC2)C(=O)N[C@@H](CC(=O)O)C(=O)COc1c(F)c(F)cc(F)c1F` were 289000 M⁻¹ s⁻¹, 306000 M⁻¹ s⁻¹, 146000 M⁻¹ s⁻¹ and 189000 M⁻¹ s⁻¹.
For `COc1ccccc1NC(=O)C(=O)N[C@H](C(=O)N[C@@H](CC(=O)O)C(=O)COc1c(F)c(F)cc(F)c1F)C(C)C`, the k3/Ki on Caspase-1 (Mus musculus) worked out at 369000 M⁻¹ s⁻¹; at Caspase-8, 441000 M⁻¹ s⁻¹; on Caspase-6 (Homo sapiens), 98500 M⁻¹ s⁻¹; on Caspase-3 (Homo sapiens), 100000 M⁻¹ s⁻¹.
Taken in the same sequence, the figures for `CC(C)[C@H](NC(=O)C(=O)Nc1ccccc1-c1ccccc1)C(=O)N[C@@H](CC(=O)O)C(=O)COc1c(F)c(F)cc(F)c1F` were 2.59e+06 M⁻¹ s⁻¹, 1.27e+06 M⁻¹ s⁻¹, 335000 M⁻¹ s⁻¹ and 158000 M⁻¹ s⁻¹.
As for `O=C(O)C[C@H](NC(=O)C1CCC(NC(=O)C(=O)Nc2cccc3ccccc23)C1)C(=O)COc1c(F)c(F)cc(F)c1F` (stereo partly drawn), the k3/Ki at Caspase-1 (Mus musculus) stood at 767000 M⁻¹ s⁻¹; on Caspase-8, 51300 M⁻¹ s⁻¹; on Caspase-6 (Homo sapiens), 8230 M⁻¹ s⁻¹; on Caspase-3 (Homo sapiens), 70600 M⁻¹ s⁻¹.
Taken in the same sequence, the figures for `O=C(O)C[C@H](NC(=O)C1Cc2ccccc2N1C(=O)C(=O)Nc1cccc2ccccc12)C(=O)COc1c(F)c(F)cc(F)c1F` (stereo partly drawn) were 912 M⁻¹ s⁻¹, 1140 M⁻¹ s⁻¹, 5580 M⁻¹ s⁻¹ and 511 M⁻¹ s⁻¹.
`CC(C)C[C@H](NC(=O)C(=O)Nc1cccc2ccccc12)C(=O)N[C@@H](CC(=O)O)C(=O)COc1c(F)cc(F)cc1F`: the k3/Ki at Caspase-8 stood at 145000 M⁻¹ s⁻¹; at Caspase-3 (Homo sapiens), 85300 M⁻¹ s⁻¹.
As to `CC(C)[C@H](NC(=O)C(=O)Nc1cccc2ccccc12)C(=O)N[C@@H](CC(=O)O)C(=O)COc1ccnc(C(F)(F)F)n1`, the k3/Ki at Caspase-1 (Mus musculus) was determined as 1.07e+06 M⁻¹ s⁻¹; at Caspase-8 it was 60300 M⁻¹ s⁻¹; at Caspase-6 (Homo sapiens), 13300 M⁻¹ s⁻¹; on Caspase-3 (Homo sapiens), 294000 M⁻¹ s⁻¹.
Taken in the same sequence, the figures for `COC(=O)c1cc(OCC(=O)[C@H](CC(=O)O)NC(=O)[C@@H](NC(=O)C(=O)Nc2cccc3ccccc23)C(C)C)no1` were 532000 M⁻¹ s⁻¹, 88800 M⁻¹ s⁻¹, 12800 M⁻¹ s⁻¹ and 264000 M⁻¹ s⁻¹.
Taken in the same sequence, the figures for `O=C(O)C[C@H](NC(=O)[C@H](CCc1ccccc1)NC(=O)C(=O)Nc1cccc2ccccc12)C(=O)COc1c(F)c(F)cc(F)c1F` were 2.68e+06 M⁻¹ s⁻¹, 1.83e+06 M⁻¹ s⁻¹, 1.08e+06 M⁻¹ s⁻¹ and 62900 M⁻¹ s⁻¹.
Taken in the same sequence, the figures for `CC(C)[C@H](NC(=O)C(=O)Nc1c(Cl)c(Cl)cc(Cl)c1Cl)C(=O)N[C@@H](CC(=O)O)C(=O)COc1c(F)c(F)cc(F)c1F` were 3.91e+06 M⁻¹ s⁻¹, 375000 M⁻¹ s⁻¹, 98700 M⁻¹ s⁻¹ and 279000 M⁻¹ s⁻¹.
Turning to `COc1cc(CNC(=O)C(=O)N[C@H](C(=O)N[C@@H](CC(=O)O)C(=O)COc2c(F)c(F)cc(F)c2F)C(C)C)cc(OC)c1OC`, the k3/Ki turned out to be 315000 M⁻¹ s⁻¹ at Caspase-1 (Mus musculus), 71800 M⁻¹ s⁻¹ on Caspase-8, 120000 M⁻¹ s⁻¹ on Caspase-6 (Homo sapiens) and 157000 M⁻¹ s⁻¹ at Caspase-3 (Homo sapiens).
Consider `CC(C)[C@H](NC(=O)C(=O)Nc1ccc2cc3ccccc3cc2c1)C(=O)N[C@@H](CC(=O)O)C(=O)COc1c(F)c(F)cc(F)c1F`, for which the k3/Ki at Caspase-1 (Mus musculus) turned out to be 43300 M⁻¹ s⁻¹; on Caspase-8, 39100 M⁻¹ s⁻¹; on Caspase-6 (Homo sapiens), 191000 M⁻¹ s⁻¹; on Caspase-3 (Homo sapiens) it was 142000 M⁻¹ s⁻¹.
Taken in the same sequence, the figures for `CCCCCCCc1ccc(NC(=O)C(=O)N[C@H](C(=O)N[C@@H](CC(=O)O)C(=O)COc2c(F)c(F)cc(F)c2F)C(C)C)cc1` were 11700 M⁻¹ s⁻¹, 18700 M⁻¹ s⁻¹, 18600 M⁻¹ s⁻¹ and 22700 M⁻¹ s⁻¹.
Taken in the same sequence, the figures for `O=C(O)C[C@H](NC(=O)[C@H](Cc1ccccc1)NC(=O)C(=O)Nc1cccc2ccccc12)C(=O)COc1c(F)c(F)cc(F)c1F` were 1.29e+06 M⁻¹ s⁻¹, 1.03e+06 M⁻¹ s⁻¹, 137000 M⁻¹ s⁻¹ and 42300 M⁻¹ s⁻¹.
Taken in the same sequence, the figures for `CC(C)[C@H](NC(=O)C(=O)NCCc1ccccc1)C(=O)N[C@@H](CC(=O)O)C(=O)COc1c(F)c(F)cc(F)c1F` were 345000 M⁻¹ s⁻¹, 207000 M⁻¹ s⁻¹, 317000 M⁻¹ s⁻¹ and 243000 M⁻¹ s⁻¹.
Regarding `CC(C)[C@H](NC(=O)C(=O)Nc1cc(C(C)(C)C)ccc1C(C)(C)C)C(=O)N[C@@H](CC(=O)O)C(=O)COc1c(F)c(F)cc(F)c1F`, the k3/Ki turned out to be 211000 M⁻¹ s⁻¹ at Caspase-1 (Mus musculus), 1.34e+06 M⁻¹ s⁻¹ on Caspase-8, 308000 M⁻¹ s⁻¹ on Caspase-6 (Homo sapiens) and 104000 M⁻¹ s⁻¹ on Caspase-3 (Homo sapiens).
Taken in the same sequence, the figures for `CC(C)[C@H](NC(=O)C(=O)Nc1cccc2ccccc12)C(=O)N[C@@H](CC(=O)O)C(=O)COc1ccc2ccccc2c1` were 156000 M⁻¹ s⁻¹, 20 M⁻¹ s⁻¹, 31 M⁻¹ s⁻¹ and 9460 M⁻¹ s⁻¹.
As for `CC(C)C[C@H](NC(=O)C(=O)Nc1cccc2ccccc12)C(=O)N[C@@H](CC(=O)O)C(=O)COc1c(F)c(F)cc(F)c1F`, the results for the k3/Ki on Caspase-8 and on Caspase-3 (Homo sapiens) were 177000 M⁻¹ s⁻¹ and 180000 M⁻¹ s⁻¹, respectively.
Take `CC(C)[C@H](NC(=O)C(=O)Nc1ccccc1I)C(=O)N[C@@H](CC(=O)O)C(=O)COc1c(F)c(F)cc(F)c1F`: the k3/Ki on Caspase-1 (Mus musculus) came out at 1.98e+06 M⁻¹ s⁻¹; at Caspase-8, 2.33e+06 M⁻¹ s⁻¹; at Caspase-6 (Homo sapiens), 373000 M⁻¹ s⁻¹; on Caspase-3 (Homo sapiens), 564000 M⁻¹ s⁻¹.
Taken in the same sequence, the figures for `CC(C)[C@H](NC(=O)C(=O)NCc1ccccc1)C(=O)N[C@@H](CC(=O)O)C(=O)COc1c(F)c(F)cc(F)c1F` were 259000 M⁻¹ s⁻¹, 12400 M⁻¹ s⁻¹, 219000 M⁻¹ s⁻¹ and 388000 M⁻¹ s⁻¹.
Taken in the same sequence, the figures for `CC(C)[C@H](NC(=O)C(=O)Nc1cccc2ccccc12)C(=O)N[C@@H](CC(=O)O)C(=O)COP(=O)(c1ccccc1)c1ccccc1` were 2.95e+06 M⁻¹ s⁻¹, 2.45e+06 M⁻¹ s⁻¹, 222000 M⁻¹ s⁻¹ and 876000 M⁻¹ s⁻¹.
Taken in the same sequence, the figures for `CC(C)[C@H](NC(=O)C(=O)Nc1ccccc1C(C)(C)C)C(=O)N[C@@H](CC(=O)O)C(=O)COc1c(F)c(F)cc(F)c1F` were 956000 M⁻¹ s⁻¹, 230000 M⁻¹ s⁻¹, 424000 M⁻¹ s⁻¹ and 268000 M⁻¹ s⁻¹.
`CC(C)[C@H](NC(=O)C(=O)Nc1ccncc1)C(=O)N[C@@H](CC(=O)O)C(=O)COc1c(F)c(F)cc(F)c1F`: the k3/Ki is 13800 M⁻¹ s⁻¹ at Caspase-1 (Mus musculus), 23100 M⁻¹ s⁻¹ at Caspase-8, 42800 M⁻¹ s⁻¹ at Caspase-6 (Homo sapiens) and 54300 M⁻¹ s⁻¹ on Caspase-3 (Homo sapiens).
Taken in the same sequence, the figures for `CC(C)[C@H](NC(=O)C(=O)Nc1c(F)c(F)c(F)c(F)c1F)C(=O)N[C@@H](CC(=O)O)C(=O)COc1c(F)c(F)cc(F)c1F` were 236000 M⁻¹ s⁻¹, 66200 M⁻¹ s⁻¹, 104000 M⁻¹ s⁻¹ and 142000 M⁻¹ s⁻¹.
As for `CC(C)(C)C(NC(=O)C(=O)Nc1cccc2ccccc12)C(=O)N[C@@H](CC(=O)O)C(=O)COc1c(F)c(F)cc(F)c1F` (stereo partly drawn), the k3/Ki at Caspase-1 (Mus musculus) is 2.32e+06 M⁻¹ s⁻¹; on Caspase-8 it was 456000 M⁻¹ s⁻¹; at Caspase-6 (Homo sapiens) it was 160000 M⁻¹ s⁻¹; at Caspase-3 (Homo sapiens), 98600 M⁻¹ s⁻¹.
`CC(C)[C@H](NC(=O)C(=O)Nc1ccccc1)C(=O)N[C@@H](CC(=O)O)C(=O)COc1c(F)c(F)cc(F)c1F`: the k3/Ki on Caspase-1 (Mus musculus) amounted to 159000 M⁻¹ s⁻¹; on Caspase-8, 282000 M⁻¹ s⁻¹; on Caspase-6 (Homo sapiens) it was 275000 M⁻¹ s⁻¹; on Caspase-3 (Homo sapiens) it was 327000 M⁻¹ s⁻¹.
Taken in the same sequence, the figures for `CC(C)[C@H](NC(=O)C(=O)Nc1ccccc1Oc1ccccc1)C(=O)N[C@@H](CC(=O)O)C(=O)COc1c(F)c(F)cc(F)c1F` were 1.5e+06 M⁻¹ s⁻¹, 933000 M⁻¹ s⁻¹, 202000 M⁻¹ s⁻¹ and 78600 M⁻¹ s⁻¹.
For the compound `CC(C)[C@H](NC(=O)C(=O)Nc1cccc2ccccc12)C(=O)N[C@@H](CC(=O)O)C(=O)COc1c(F)cc(F)cc1F`, the k3/Ki on Caspase-8 came to 189000 M⁻¹ s⁻¹; on Caspase-3 (Homo sapiens), 340000 M⁻¹ s⁻¹.
Taken in the same sequence, the figures for `CC(C)[C@H](NC(=O)C(=O)Nc1cccc2ccccc12)C(=O)N[C@@H](CC(=O)O)C(=O)COC(=O)c1c(Cl)cccc1Cl` were 119000 M⁻¹ s⁻¹ and 740000 M⁻¹ s⁻¹.
Consider `CC(C)[C@H](NC(=O)C(=O)Nc1cccc2ccccc12)C(=O)N[C@@H](CC(=O)O)C(=O)COc1c(F)c(F)cc(F)c1F`, for which the results for the k3/Ki at Caspase-8 and on Caspase-3 (Homo sapiens) were 448000 M⁻¹ s⁻¹ and 289000 M⁻¹ s⁻¹, respectively.

The record behind these values is ChEMBL document CHEMBL1146752, “Oxamyl dipeptide caspase inhibitors developed for the treatment of stroke” (Bioorg Med Chem Lett, 2004).
